Assay results from PMC9544254 (Clinical and Experimental Allergy, 2022).

Sequences of proteins named here, by UniProt entry; tags and fusion partners are left off. Residues count along the entry.
UniProt P03952, 20-390 partner limits assumed: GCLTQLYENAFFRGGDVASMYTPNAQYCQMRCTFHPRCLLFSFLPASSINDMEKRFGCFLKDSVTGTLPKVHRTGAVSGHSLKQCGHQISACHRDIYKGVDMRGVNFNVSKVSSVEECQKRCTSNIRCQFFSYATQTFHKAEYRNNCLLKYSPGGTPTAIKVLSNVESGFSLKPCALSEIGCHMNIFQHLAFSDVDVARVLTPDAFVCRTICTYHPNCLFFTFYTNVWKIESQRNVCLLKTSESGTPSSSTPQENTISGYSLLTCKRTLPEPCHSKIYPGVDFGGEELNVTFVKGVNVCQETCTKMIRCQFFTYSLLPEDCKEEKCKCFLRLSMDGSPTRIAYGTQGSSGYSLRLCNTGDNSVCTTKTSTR
UniProt P03952, 391-638 limits assumed: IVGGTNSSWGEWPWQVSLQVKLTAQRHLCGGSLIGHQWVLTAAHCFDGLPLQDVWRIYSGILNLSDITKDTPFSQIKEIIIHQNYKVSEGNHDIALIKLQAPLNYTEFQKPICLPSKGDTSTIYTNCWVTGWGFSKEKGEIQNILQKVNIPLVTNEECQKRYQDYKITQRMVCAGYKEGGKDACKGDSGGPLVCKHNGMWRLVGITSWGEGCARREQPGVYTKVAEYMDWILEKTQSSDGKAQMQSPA

Molecular target: T1, PKa (Homo sapiens, UniProt P03952)
T1 construct: host or cells: human pooled plasma, stimulated with dextran sulphate
Assay: DXS‐stimulated PKa enzyme activity in whole plasma
Type: biochemical
Settings: for reduction of fluorescence generation compared with vehicle: 5 min pre‐incubation, 17 min assay, 6.25 µg/ml DXS
Description: PKa enzyme activity was measured in human pooled plasma (control plasma, Affinity Biologicals) using H‐D‐Pro‐Phe‐Arg‐AFC. The KKS in plasma was stimulated by the addition of dextran sulphate 500 kDa (DXS; Sigma‐Aldrich). PKa activity in the plasma was estimated based on the maximum rate of fluorescence increase. […] Percent plasma protein binding (PPB %) was determined using Rapid Equilibrium Dialysis (Pierce RED technology, ThermoFisher Scientific). Compounds were spiked into control plasma (final concentration 5 μM) and dialysed against phosphate buffer (pH 7.4) for 5 h at 37°C. Samples were analysed using liquid chromatography‐tandem mass spectrometry to quantify the fraction of unbound compound.

## COCc1nn(Cc2ccc(Cn3ccccc3=O)cc2)cc1C(=O)NCc1nccc(OC)c1F [KVD900]
300 nM added 3.5 min after DXS‐stimulation (10 µg/ml)
  decrease of the rate of fluorescence generation in pre‐activated plasma: 73.4%
316 nM
  reduction of fluorescence generation compared with vehicle: > 99.7%
1000 nM added 3.5 min after DXS‐stimulation (10 µg/ml)
  decrease of the rate of fluorescence generation in pre‐activated plasma: 88.9%
1000 nM
  reduction of fluorescence generation compared with vehicle: > 99.7%
3000 nM added 3.5 min after DXS‐stimulation (10 µg/ml)
  decrease of the rate of fluorescence generation in pre‐activated plasma: 93.0%
